# Patent US20260199500A1, “Camptothecin Derivative, Conjugate Thereof, Preparation Method Therefor and Medical Use Thereof” (priority 2023, published 2026)
# Tests used:
# [1] = test system: human breast cancer JIMT-1 xenograft; test: Efficacy of ADCs in human breast cancer JIMT-1 xenograft model (Test Example 4); format: in vivo, CB17 SCID mice; details: 3 mg/kg i.v. twice
# [2] = test system: human gastric cancer NCI-N87 xenograft; test: Efficacy of ADCs in human gastric cancer NCI-N87 xenograft model (Test Example 5); format: in vivo, CB17 SCID mice; details: 1 mg/kg i.v. once
# Method: The human gastric cancer NCI-N87 cell line (ATCC, CTL-5822) was cultured in RPMI-1640 medium (Gibco, catalog number: 22400-089, containing 10% FBS (Excell Bio, catalog number: FCS500)) in a 37° C. incubator with 500 CO2. Cells were digested with 0.25% trypsin-EDTA, washed with PBS twice, counted by a cell counter, and diluted with PBS to a cell concentration of 1×10^8 cells/mL before ten consecutive generations of cells were cultured.
# CB17 SCID mice (female, 4-6 weeks of age, Beijing Vital River Laboratory Animal Technology Co., Ltd.) were used. CB17 SCID mice were acclimated to the laboratory environment for 2-5 days, NCI-N87 cells were inoculated subcutaneously into the right flank of each mouse at a dose of 5×10^6 cells/mouse in a volume of 0.1 mL (containing 50% Matrigel). When the tumor grew to approximately 100 mm^3, drug administration was performed according to the scheme shown in Table 8, and DAR values were all adjusted to 8.
# Tumor volumes and body weight were measured twice a week, and the tumor proliferation rate and relative tumor inhibition rate were calculated. The calculation formulas are as follows:
# [formula] • (TRTV: average RTV of the treatment group; CRTV: average RTV of the control group; RTV=Vt/VO, where VO is the tumor volume of the animal at the time of grouping, and Vt is the tumor volume of the animal after treatment).
# [formula] • (T and C are relative tumor volumes (RTV) of the treatment and control groups at a specific time point, respectively);
# The formula for calculating the tumor volume (V): V=½×LL×LS^2 • where LL and LS represent the long and short diameters of the tumor, respectively. At the end of the experiment, the mice were sacrificed and the tumors were cut off and weighed.
# N87 gastric cancer cells = test: Inhibitory activity of ADC on N87 gastric cancer cells (CellTiter-Glo, 144 h); format: cell-based; details: DAR values adjusted to DAR8
# Method: (§1) Day 0: Cells in good growth condition were digested and filtered, then counted. 2000 cells/100 μL medium (N87 cells) were added to each well of a 96-well plate. 1000 cells/100 μL medium were added to each well of a 96-well plate (468 cells, N87 or HCC1954). 200 μL sterile water or PBS was added to the outer wells and incubated for 24 hours.
# (§2) Day 1: Samples in the medium were gradient diluted (9 gradients+1 negative control). For N87, Payload or ADC was plated: Plate 1 (T-LY21, T-LY29, T-LY33), Plate 2 (T-LY33A, T-LY22, T-LY22C), Plate 3 (T-LY34, T-LY34B, T-LY35), Plate 4 (T-LY21C, T-LY28B, T-LY28C), Plate 5 (T-LY43C, T-LY43D, T-LY43E). Each sample had two parallel controls. The initial concentration was 100 nM, followed by 8 subsequent wells with 4-fold serial dilutions. 100 μL of the corresponding sample was added to each well of the Day 0 plate, with the 11th column as the control group with culture medium. Each sample had two parallel controls with an initial concentration of 1000 nM, followed by 8 subsequent wells with 4-fold serial dilutions. […]
# (§3) Day 7: After 144 hours of cell treatment, the reagent CellTiter-Glo® was dissolved 30 minutes in advance. 100 μL of the reagent was added to each well, protected from light for 2-5 minutes, and the results were read twice to obtain the average.
# [3] = test system: human gastric cancer NCI-N87 xenograft; test: Efficacy of ADCs in human gastric cancer NCI-N87 xenograft model (Test Example 3); format: in vivo, CB17 SCID mice; details: 1 mg/kg i.v. once
# [4] = test system: MDA-MB-468-luc cells co-cultured with N87 cells; test: Bystander killing test, N87 and 468-luc cells co-cultured; format: cell-based; details: 144 h
# Method: (§4) NCI-N87 cells (Shanghai Cell Bank of Chinese Academy of Sciences, SCSP-534) were cultured in RPMI1640 medium (Gibco, 22400-089) and 10% fetal bovine serum (BOVOGEN). MDA-MB-468-luc cells (Shanghai Cell Bank of Chinese Academy of Sciences, TCHu136) with stably transfected firefly luciferase gene (self-constructed) were cultured in DMEM medium (Gibco, 11995-065) and 10% fetal bovine serum (BOVOGEN). The cells were digested with trypsin, and three black transparent-bottom cell culture plates (Corning, 3063) were used: plate 1 was added with 1000 N87 cells/well, plate 2 was added with 1000 468-luc cells/well, plate 3 was added with 2000 N87 and 1000 468-luc mixed cells/well. and the cells were incubated overnight at 37° C. in the incubator with 5% CO2. ADC samples were diluted with medium to final concentrations of 10 nM and 1 nM, 100 μL of ADC samples was added to each well, blank media were set as a control group, and the cells were further cultured for 144 hours. 100 μL of CELL Counting-Lite 2.0 Test Reagent (Vazyme, DD1101-03) was added to each well in plate 1 and was kept in the dark for 5 minutes for coloration. […] The fluorescence value was measured by a multifunctional microplate reader (Tecan Spark) with a reading time of 200 ms. Bystander killing activity was calculated using the formula: (Control group reading−ADC group reading)/(Control group reading)×100%.
# [5] = test system: MDA-MB-468-luc cells (low expression of HER2); test: Bystander killing test, 468-luc cells alone; format: cell-based; details: ADC 1 nM and 10 nM; 144 h
# Method: as §4
# [6] = test system: MDA-MB-468 breast cancer cells; test: Inhibitory activity of ADC on MDA-MB-468 breast cancer cells; format: cell-based; details: DAR values adjusted to DAR8, 144 h
# Method: as §1, §2, §3
# [7] = format: in vivo, SD rats; details: single dose 200 mg/kg tail vein, day 1 to day 10
# Method: 1. Test method: SD rats were purchased from Beijing Vital River Laboratory Animal Technology Co., Ltd. and kept in SPF animal facility. Rats weighing 210 g-250 g were randomly divided into 3 groups, with 5 rats in each group, and the rats were administered with ADCs or vehicle control at a dose of 200 mg/kg via tail vein injection, with the injection day considered as day 1. Rats' body weight and food intake were measured daily, and their activity, fur condition, and any signs of diarrhea or soft stools were observed. Blood samples were collected on days 5 and 21 post-administration to test blood biochemistry and hematology parameters. The study ended on day 22 post-administration, and the rats were euthanized. Major organs (heart, liver, spleen, lungs, kidneys, etc.) were dissected and observed for gross pathological changes.
substance,measurement,setting,value
Trastuzumab Deruxtecan [T-BY1],TC(%) 25 days after dosing,[1],34.45%
same,TGI(%) 25 days after dosing,[1],65.55%
same,Tumor volume 4 days after dosing,[1],159.07 mm^3
same,Tumor volume 8 days after dosing,[1],168.66 mm^3
same,Tumor volume 15 days after dosing,[1],135.92 mm^3
same,Tumor volume 19 days after dosing,[1],142.86 mm^3
same,Tumor volume 22 days after dosing,[1],149.41 mm^3
same,Tumor volume 25 days after dosing,[1],203.64 mm^3
same,Tumor Volume 0 days after dosing,[1]; tumor 150-200 mm^3 at start,164.38 mm^3
same,TC(%) 28 days after dosing,[2],26.41%
same,TGI(%) 28 days after dosing,[2],73.59%
same,Tumor Volume 7 days after dosing,[2],147.97 mm^3
same,Tumor Volume 10 days after dosing,[2],187.85 mm^3
same,Tumor Volume 13 days after dosing,[2],220.18 mm^3
same,Tumor Volume 16 days after dosing,[2],224.36 mm^3
same,Tumor Volume 24 days after dosing,[2],199.35 mm^3
same,Tumor Volume 28 days after dosing,[2],210.98 mm^3
same,Tumor volume 19 days after dosing,[2],230.25 mm^3
same,Tumor Volume 0 days after dosing,[2]; tumor approx. 100 mm^3 at start,98.08 mm^3
same,IC50,N87 gastric cancer cells,0.126 nM
same,T/C(%) 27 days after dosing,[3],18.65%
same,TGI % 27 days after dosing,[3],81.35%
same,Tumor Volume 7 days after dosing,[3],83.77 mm^3
same,Tumor Volume 11 days after dosing,[3],123.0 mm^3
same,Tumor Volume 21 days after dosing,[3],149.44 mm^3
same,Tumor Volume 24 days after dosing,[3],148.70 mm^3
same,Tumor Volume 27 days after dosing,[3],149.73 mm^3
same,Tumor Volume 0 days after dosing,[3]; tumor approx. 200 mm^3 at start,204.14 mm^3
same,proportion of 468-luc cells killed in co-culture with N87,[4]; ADC 1 nM,13.9%
same,proportion of 468-luc cells killed in co-culture with N87,[4]; ADC 10 nM,34.0%
same,killing of 468-luc cells cultured alone,[5],basically could not kill 468-luc cells
same,IC50,[6],49.4 nM
same,body weight of rats compared with vehicle control,[7]; first study,significantly lower than that of the vehicle control
same,body weight of rats compared with vehicle control,[7]; second study,significantly lower than that of the vehicle control

# Read-outs that look alike come from different tables or passages of the source.
